The test system of experiment [1] is primary human pan T cells. As to conditions: anti-CD3/anti-CD28 stimulation 4 hours.
Experiment [2] deals with T1, HPK1 (Homo sapiens (Human), UniProt Q92918). Description: biochemical. As to conditions: HPK1 Ki (nM) L = Lanth, Lantha binding assay; 2 nM HPK1, 15 nM Tracer222.
Experiment [3] addresses T1, HPK1. As to conditions: Lantha binding assay, 2 nM HPK1, 15 nM Tracer222.
For experiment [4], the target named is HPK1 (Homo sapiens (Human), UniProt Q92918, S171E/T165E). The experiment is described as follows: biochemical.

pKi: −log10 of the molar value. Where two headings read alike, the source gives them in different places.

This note sets out measurements from US11566003B2, “Isoquinolines as inhibitors of HPK1” (priority 2017, dated 2023).

Turning to `CC(C)N1CCc2cc(Nc3cc4cc(-c5cncc6c5OCCN6)c(F)c(N)c4cn3)nn2CC1=O` [Compound 284, 2-[[8-amino-6-(3,4-dihydro-2H-pyrido[4,3-b][1,4]oxazin-8-yl)-7-fluoro-3-isoquinolyl]amino]-6-isopropyl-5,8-dihydro-4H-pyrazolo[1,5-d][1,4]diazepin-7-one], the “% IL-2 increase relative to untreated cells” value in experiment [1] (assayed concentration 0.93 μM) is recorded as 529%.
On to `CO[C@@H]1CC[C@@H](C)c2cc(Nc3cc4cc(-c5cncc(N)c5C)c(F)c(N)c4cn3)nn2C1` (single isomer, unassigned) [Compound 266], for which the “% IL-2 increase relative to untreated cells” value in experiment [1] (assayed concentration 0.93 μM) turned out to be 438%.
Take `CC[C@H]1[C@@H](C(=O)Nc2cc3cc(-c4cncc(N)c4C)c(F)c(N)c3cn2)[C@@H]1c1cnn(C)c1` (single isomer, unassigned) [Compound 279]: the “% IL-2 increase relative to untreated cells” value in experiment [1] (assayed concentration 0.10 μM) stood at 333%.
In the case of `Cc1ccncc1-c1cc2cc(NC(=O)[C@H]3C[C@@H]3c3cn(C)nn3)ncc2c(N)c1F` [Compound 354, (1S,2S)-N-(8-amino-7-fluoro-6-(4-methylpyridin-3-yl)isoquinolin-3-yl)-2-(1-methyl-1H-1,2,3-triazol-4-yl)cyclopropane-1-carboxamide], on HPK1 [2], the Ki (commonly a dissociation constant, usually derived from enzyme kinetics or from competition with a known ligand) is 0.84 nM.
With `Cc1c(N)cncc1-c1cc2cc(NC(=O)[C@H]3[C@@H]4COC[C@@H]43)ncc2c(N)c1F` [Compound 158, (1R,5S,6r)-N-(8-amino-6-(5-amino-4-methylpyridin-3-yl)-7-fluoroisoquinolin-3-yl)-3-oxabicyclo[3.1.0]hexane-6-carboxamide], the “% IL-2 increase relative to untreated cells” value in experiment [1] (assayed concentration 0.93 μM) is recorded as 343%.
Regarding `Cc1ccncc1-c1cc2cc(Nc3cc4n(n3)CC(=O)N(C)CC4)ncc2c(N)c1F` [Compound 230, 2-((8-amino-7-fluoro-6-(4-methylpyridin-3-yl)isoquinolin-3-yl)amino)-6-methyl-5,6-dihydro-4H-pyrazolo[1,5-d][1,4]diazepin-7(8H)-one], the pKi (commonly −log10 of the Ki, conventionally taken in molar units) on HPK1 [3] (read-out: HPK1 Ki (μm), (Lanth)) was 9.82; at HPK1 [4], 9.82.
In the case of `Cc1ccncc1-c1cc2cc(NC(=O)[C@@H]3C[C@H]3c3cn(C)nn3)ncc2c(N)c1F` [Compound 356, (1R,2R)—N-(8-amino-7-fluoro-6-(4-methylpyridin-3-yl)isoquinolin-3-yl)-2-(1-methyl-1H-1,2,3-triazol-4-yl)cyclopropane-1-carboxamide], the Ki on HPK1 [3] (read-out: HPK1 Ki (nM) L = Lanth) was 2.2 nM.
For the molecule `Cc1c(N)cncc1-c1cc2cc(Nc3cc4n(n3)CS(=O)(=O)N(C)C4)ncc2c(N)c1F` [Compound 276, 2-((8-amino-6-(5-amino-4-methylpyridin-3-yl)-7-fluoroisoquinolin-3-yl)amino)-5-methyl-4,5-dihydro-7H-pyrazolo[5,1-d][1,2,5]thiadiazine 6,6-dioxide], the “% IL-2 increase relative to untreated cells” value in experiment [1] (assayed concentration 0.31 μM) came out at 1157%.
